For orientation: Km means the substrate concentration at which the rate is half of its maximum.

The data set concerns Oc1ccccc1-c1ccccc1. The data set can be described thus: purified protein. The following applies: co-substrate NADH, air-saturated buffer.

For “HbpA; 2-hydroxybiphenyl 3-monooxygenase (Pseudomonas nitroreducens; R242A)”, the Michaelis constant (Km) (NADH oxidation read-out) was 4.8 ± 1.6 µM.
Regarding “HbpA; 2-hydroxybiphenyl 3-monooxygenase (Pseudomonas nitroreducens; D117A)”, the Km came out at 5.0 ± 0.8 µM.
As to “HbpA; 2-hydroxybiphenyl 3-monooxygenase (Pseudomonas nitroreducens; H48A)”, the Michaelis constant (Km) (NADH oxidation read-out, hydroxylation is uncoupled) stood at 3.1 ± 0.4 µM.
